Values of other authors, collected in article PMC3397136 (Amino Acids, 2011).

Molecular target: T1, human oxytocin receptor (Homo sapiens, UniProt P30559)
T1 sequence (P30559 1-389): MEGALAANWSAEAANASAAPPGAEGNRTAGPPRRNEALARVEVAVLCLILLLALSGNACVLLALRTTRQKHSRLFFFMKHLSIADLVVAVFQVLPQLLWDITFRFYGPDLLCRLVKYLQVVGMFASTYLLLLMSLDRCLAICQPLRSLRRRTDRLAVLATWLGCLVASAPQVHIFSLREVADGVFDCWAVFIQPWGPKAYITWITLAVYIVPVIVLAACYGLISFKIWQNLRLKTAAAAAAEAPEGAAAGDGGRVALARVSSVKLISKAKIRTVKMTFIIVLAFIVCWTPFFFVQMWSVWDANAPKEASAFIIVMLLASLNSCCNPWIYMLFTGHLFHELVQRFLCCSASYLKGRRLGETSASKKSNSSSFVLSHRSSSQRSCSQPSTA
Conditions: HEK cells, ref Reversi et al. (2005); cited from earlier work

d[D-Tyr(Et)^2,Thr^4]OVT [Atosiban]
Ki: 71.5 ± 21.2 nM
